Consider one compound from patent US5844001A, “Combination platinum chemotherapeutic/antiestrogen therapy for human cancers” (Research Development Foundation, priority 1994, dated 1998).

In this assay the test system is 2008 ovarian carcinoma cells. Nature of the assay: Development of DDP resistance with or without TAM, 2008 (colony formation). The conditions noted are these: TAM given concurrently, in words, listed as TAM. It counts as cell-based, human.

Entries after “also recorded” stand apart in the source; their conditions may differ.

As to `CC/C(=C(\c1ccccc1)c1ccc(OCCN(C)C)cc1)c1ccccc1` [tamoxifen], the “effect on development of DDP resistance” value is “delay the development of DDP resistance; also recorded: reduced by TAM in each of the 3 repeats”.
